The test system of one data set is Stylophora pistillata. Description: Activation of Stylophora pistillata carbonic anhydrase STPCA by stopped flow CO2 hydration assay.
Data set [1] addresses Carbonic anhydrase 6 (Homo sapiens) (UniProt P23280). Description: Activation of human full length CA6 by stopped flow CO2 hydration assay.
Data set [2] concerns N[C@H](Cc1c[nH]c2ccccc12)C(=O)O. Description: Activity of human recombinant CA1 at 10 uM by stopped flow CO2 hydration assay.

By UniProt entry, the sequences of proteins in these tests, tags left out. Where a name states a change or a piece, a line headed by the entry shows the natural chain unless it says otherwise.
UniProt P23280: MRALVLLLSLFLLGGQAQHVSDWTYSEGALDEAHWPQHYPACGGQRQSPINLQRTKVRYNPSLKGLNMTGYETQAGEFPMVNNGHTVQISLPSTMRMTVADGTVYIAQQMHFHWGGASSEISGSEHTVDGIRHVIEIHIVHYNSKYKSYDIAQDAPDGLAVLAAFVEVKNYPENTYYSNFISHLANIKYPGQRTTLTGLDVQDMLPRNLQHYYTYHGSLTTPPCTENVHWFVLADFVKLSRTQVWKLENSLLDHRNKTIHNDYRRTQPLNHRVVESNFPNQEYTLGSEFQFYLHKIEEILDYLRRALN

Take `N[C@@H](Cc1ccccc1)C(=O)O`: the figures for the KA (in the data set on Stylophora pistillata; in data set [1]) were 34 µM and 1.23 µM, respectively.

As for `N[C@H](Cc1ccccc1)C(=O)O`, the results for the KA (with Stylophora pistillata; in data set [1]) were 21 µM and 16 µM, respectively.

As to “Carbonic anhydrase 1 (Homo sapiens), P00915”, the kcat in data set [2] came out at 2.3 ×10⁵ /s.

The record behind these values is ChEMBL document CHEMBL1157628, “Carbonic anhydrase activators. The first activation study of a coral secretory isoform with amino acids and amines” (Bioorg Med Chem, 2010).
